From ChEMBL document CHEMBL1126061, “Cyclic RGD peptide analogues as antiplatelet antithrombotics” (J Med Chem, 1992)

By UniProt entry, the sequences of proteins in these tests, tags left out. Residues count along the entry.
UniProt P05106, 27-788 limits assumed: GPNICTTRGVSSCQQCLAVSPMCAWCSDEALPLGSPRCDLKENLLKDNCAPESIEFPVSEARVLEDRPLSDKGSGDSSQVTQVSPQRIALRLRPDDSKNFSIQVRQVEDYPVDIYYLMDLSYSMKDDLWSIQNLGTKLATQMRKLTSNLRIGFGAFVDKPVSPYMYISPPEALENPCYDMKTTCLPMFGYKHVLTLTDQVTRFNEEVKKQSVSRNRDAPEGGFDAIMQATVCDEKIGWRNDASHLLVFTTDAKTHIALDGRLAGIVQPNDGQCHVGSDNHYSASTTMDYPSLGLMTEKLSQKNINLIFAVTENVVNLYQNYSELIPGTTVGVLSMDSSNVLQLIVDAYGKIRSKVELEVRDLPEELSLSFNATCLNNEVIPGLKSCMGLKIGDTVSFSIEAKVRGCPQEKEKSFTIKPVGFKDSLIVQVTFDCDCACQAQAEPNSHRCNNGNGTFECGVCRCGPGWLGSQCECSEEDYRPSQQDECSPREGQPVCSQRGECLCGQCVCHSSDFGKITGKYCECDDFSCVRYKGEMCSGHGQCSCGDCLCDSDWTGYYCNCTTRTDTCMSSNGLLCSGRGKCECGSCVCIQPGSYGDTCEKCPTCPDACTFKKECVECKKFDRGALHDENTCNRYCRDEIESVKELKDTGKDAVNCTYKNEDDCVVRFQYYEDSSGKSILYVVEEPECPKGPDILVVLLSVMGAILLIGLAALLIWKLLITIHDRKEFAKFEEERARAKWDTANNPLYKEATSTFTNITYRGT
UniProt P08514, 32-887 limits assumed: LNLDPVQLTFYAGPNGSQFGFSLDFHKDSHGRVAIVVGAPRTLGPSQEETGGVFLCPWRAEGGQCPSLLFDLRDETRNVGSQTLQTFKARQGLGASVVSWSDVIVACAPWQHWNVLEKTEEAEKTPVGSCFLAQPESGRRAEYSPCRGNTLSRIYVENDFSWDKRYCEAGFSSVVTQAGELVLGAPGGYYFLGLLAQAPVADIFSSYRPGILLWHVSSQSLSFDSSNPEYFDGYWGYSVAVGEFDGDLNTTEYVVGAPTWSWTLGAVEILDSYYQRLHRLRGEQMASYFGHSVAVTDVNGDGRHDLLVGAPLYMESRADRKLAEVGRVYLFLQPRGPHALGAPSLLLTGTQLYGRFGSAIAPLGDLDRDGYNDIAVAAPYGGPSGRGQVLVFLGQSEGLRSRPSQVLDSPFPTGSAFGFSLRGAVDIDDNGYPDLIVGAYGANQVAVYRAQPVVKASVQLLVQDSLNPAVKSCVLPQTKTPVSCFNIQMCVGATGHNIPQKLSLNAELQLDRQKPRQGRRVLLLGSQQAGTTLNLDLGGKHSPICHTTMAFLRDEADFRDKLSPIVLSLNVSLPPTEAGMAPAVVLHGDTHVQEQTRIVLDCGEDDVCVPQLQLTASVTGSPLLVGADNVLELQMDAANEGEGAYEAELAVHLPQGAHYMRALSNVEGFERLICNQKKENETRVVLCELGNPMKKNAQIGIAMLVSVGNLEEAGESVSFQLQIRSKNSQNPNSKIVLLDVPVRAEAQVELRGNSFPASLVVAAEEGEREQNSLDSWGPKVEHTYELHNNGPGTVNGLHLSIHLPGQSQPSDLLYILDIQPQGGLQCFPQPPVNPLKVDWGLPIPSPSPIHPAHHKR
UniProt P08514, 891-1039 limits assumed: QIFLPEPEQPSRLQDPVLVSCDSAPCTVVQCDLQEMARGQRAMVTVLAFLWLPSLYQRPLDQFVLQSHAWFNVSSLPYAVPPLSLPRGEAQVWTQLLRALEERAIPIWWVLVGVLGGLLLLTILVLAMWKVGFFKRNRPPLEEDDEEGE

Molecular target: Integrin alpha-IIb/beta-3 (Homo sapiens, UniProt P05106+P08514)
Assay: The compound was tested for the inhibition of fibrinogen receptor
Format: protein-complex assay
Outline: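 Solid-phase ELISA: human fibrinogen (10 µg/mL) coated, BSA-blocked; samples plus purified human platelet GPIIbIIIa (40 µg/mL) incubated 1 h at room temperature. Bound receptor detected with anti-GPIIbIIIa antibody AP3 (1 µg/mL, 1 h), then goat anti-mouse HRP (1 h); OPD/H2O2 at pH 5, stopped with H2SO4, absorbance 492-405 nm. IC50 from four-parameter fit; n ≥ 3.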

| IC50 | SMILES |
| --- | --- |
| 83 nM | NCC(=O)N[C@@H](CCCN=C(N)N)C(=O)NCC(=O)N[C@@H](CC(=O)O)C(=O)N[C@@H](Cc1ccccc1)C(=O)O |
| 133 nM | N=C(N)NCCC[C@H](NC(=O)CN)C(=O)NCC(=O)N[C@@H](CC(=O)O)C(=O)N[C@@H](CO)C(=O)O |
